Data as given in US10537555B2, “Complex of angiotensin receptor antagonist and neutral endopeptidase inhibitor” (CHENGDU EASTON BIOPHARMACEUTICALS CO., LTD., priority 2015, dated 2020).

Tests used:
[1] = Equilibrium solubility test at 37° C.; conditions: for Equilibrium solubility pH 3.5: pH=3.5 ammonium acetate/ammonia buffer solution
[2] = for Change of HPLC purity in stability test: 10 days at 60° C., 25° C. RH90%±5%, or 4500 lux±500 lux
[3] = Hygroscopy test (25±1° C., RH 80%±2%, 24 hours); format: physicochemical; conditions: for Appearance at Hour Twenty-Four / Weight Increase: 24 hours
Source text: The results are in Table XII.

[4] = in vivo pharmacokinetic studies in Beagle dogs; conditions: single oral administration of the drug capsule; for CMAX and AUC of valsartan, AHU377 and LBQ657 relative to the comparative example: P<0.05
Source text: Example 1 in capsules: the capsules containing Example 1, provided by the Department of Drug Formulations of Chengdu Eastern Pharma Co., dosage 312 μmol/capsule, Lot: 150901;
Example 3 in capsules: the capsules containing Example 3, provided by the Department of Drug Formulations of Chengdu Eastern Pharma Co., dosage 312 μmol/capsule, Lot: 150901;
Example 5 in capsules: the capsules containing Example 5, provided by the Department of Drug Formulations of Chengdu Eastern Pharma Co., dosage 312 μmol/capsule, Lot: 150901;
Four male Beagle dogs, body weight 8±2 kg, age 10-12 months, purchased from Chengdu Dashuo Biological Technology Co., Ltd., Certificate of Conformity: SCXK (Sichuan) 2013-24.
The drug administration period: using Beagle dogs in a 4×4 crossover pilot study. There is a total of 4 test cycles. In each cycle 4 dogs were administered 4 different drug capsules. After each cycle, paused for two days to let the medications fully metabolize before starting the next experiment cycle.
In every cycle, 1 ml blood sample was collected in EDTA-K2 tubes at 5 min, 15 min, 0.5 h, 1 h, 2 h, 3 h, 4 h, 6 h, 8 h, 10 h, 24 h, 36 h, 48 h prior to and after administering the single dosage into the forelimb or hind limb veins and centrifuged for 10 min at 3000 r/min. Plasma was separated and kept in a freezer at −70° C.
Evenly mixing 50 μl plasma with 5 μl of a working solution or a blank diluent, adding 150 μl precipitating agent acetonitrile that contains an internal standard, vortex mixed for 2 minutes, centrifuged for 5 minutes at 12000 rpm. 100 μl supernatant was mixed with 100 μl pure water. The injection sample size was 10 μl.
SPSS was used for statistical analysis and experimental data was expressed with the mean plus or minus standard deviation. Comparison between the multiple sets of data used analysis of variance (ANOVA), while Least Significant Difference (LSD) Test was employed to compare two data points.

| Compound | Change of HPLC purity in stability test [2] | Purity, AHU377 ([2]; Humidity 25° C. RH90%, 0 days) | Purity, Valsartan ([2]; Humidity 25° C. RH90%, 0 days) | Purity, AHU377 ([2]; Humidity 25° C. RH90%, 5 days) | Purity, Valsartan ([2]; Humidity 25° C. RH90%, 5 days) | Purity, AHU377 ([2]; Humidity 25° C. RH90%, 10 days) | Purity, Valsartan ([2]; Humidity 25° C. RH90%, 10 days) | Purity, AHU377 ([2]; Light 4500Lux, 0 days) | Purity, Valsartan ([2]; Light 4500Lux, 0 days) | Purity, AHU377 ([2]; Light 4500Lux, 5 days) | Purity, Valsartan ([2]; Light 4500Lux, 5 days) | Purity, AHU377 ([2]; Light 4500Lux, 10 days) | Purity, Valsartan ([2]; Light 4500Lux, 10 days) | Purity, AHU377 ([2]; Temperature 60° C., 0 days) | Purity, Valsartan ([2]; Temperature 60° C., 0 days) | Purity, AHU377 ([2]; Temperature 60° C., 5 days) | Purity, Valsartan ([2]; Temperature 60° C., 5 days) | Purity, AHU377 ([2]; Temperature 60° C., 10 days) | Purity, Valsartan ([2]; Temperature 60° C., 10 days) | Appearance at Hour Twenty-Four [3] | other results |
| --- | --- | --- | --- | --- | --- | --- | --- | --- | --- | --- | --- | --- | --- | --- | --- | --- | --- | --- | --- | --- | --- |
| [3-((1S, 3R)-1-biphenyl-4-ylmethyl-3-ethoxycarbonyl-1-butylcarbamoyl)propionate-(S)-3′-methyl-2′-(pentanoyl {2″-(tetrazol-5-ylate)biphenyl-4′-ylmethyl}amino)butyrate]6CaNa16.15H2O [Example 2] | only slight decreases in purities | 62.88 | 37.12 | 62.86 | 37.11 | 62.82 | 37.08 | 62.88 | 37.12 | 62.84 | 37.11 | 62.80 | 37.08 | 62.88 | 37.12 | 62.89 | 37.11 | 62.77 | 37.06 | Off White powder | Equilibrium solubility pH 3.5 [1]: 0.51 mg/mL; Weight Increase [3]: 6.98%; Appearance at Hour Zero [3]: Off white powder |
| [3-((1S, 3R)-1-biphenyl-4-ylmethyl-3-ethoxycarbonyl-1-butylcarbamoyl)propionate-(S)-3′-methyl-2′-(pentanoyl {2″-(tetrazol-5-ylate)biphenyl-4′-ylmethyl}amino)butyrate]6Ca3Na12.15H2O [Example 6] | only slight decreases in purities | 62.90 | 37.10 | 62.83 | 37.03 | 62.78 | 36.96 | 62.90 | 37.10 | 62.81 | 37.04 | 62.73 | 36.96 | 62.90 | 37.10 | 62.82 | 37.01 | 62.77 | 36.95 | maintained its appearance; also recorded: Off white powder | Equilibrium solubility pH 3.5 [1]: 0.45 mg/mL; Equilibrium solubility Water ([1]; water): 3740 µg/mL; Weight Increase [3]: 2.09%; Appearance at Hour Zero [3]: Off white powder |
| CCCCC(=O)N(Cc1ccc(-c2ccccc2-c2nn[n-]n2)cc1)C(C(=O)[O-])C(C)C.CCCCC(=O)N(Cc1ccc(-c2ccccc2-c2nn[n-]n2)cc1)C(C(=O)[O-])C(C)C.CCOC(=O)C(C)CC(Cc1ccc(-c2ccccc2)cc1)NC(=O)CCC(=O)[O-].CCOC(=O)C(C)CC(Cc1ccc(-c2ccccc2)cc1)NC(=O)CCC(=O)[O-].O.O.O.O.O.[Na+].[Na+].[Na+].[Na+].[Na+].[Na+] (stereo not drawn) [Comparative Example, reference compound] | – | 62.91 | 37.09 | 62.89 | – | 62.91 | – | 62.91 | 37.09 | 62.84 | – | 62.81 | – | 62.91 | 37.09 | 62.81 | – | 62.76 | – | – | – |
| [3-((1S, 3R)-1-biphenyl-4-ylmethyl-3-ethoxycarbonyl-1-butylcarbamoyl)propionate-(S)-3′-methyl-2′-(pentanoyl {2″-(tetrazol-5-ylate)biphenyl-4′-ylmethyl}amino)butyrate]6Ca2Na14.15H2O [Example 3] | only slight decreases in purities | 62.87 | 37.13 | 62.82 | 37.12 | 62.77 | 37.08 | 62.87 | 37.13 | 62.84 | 37.09 | 62.82 | 37.07 | 62.87 | 37.13 | 62.81 | 37.11 | 62.77 | 37.08 | Off white powder | Equilibrium solubility pH 1.0 ([1]; pH=1.0 (0.1 mol/L) hydrochloric acid): 0.06 mg/mL; TMAX of valsartan relative to the comparative example [4]: moved significantly earlier; CMAX and AUC of valsartan, AHU377 and LBQ657 relative to the comparative example [4]: clearly higher than that of the comparative sample; Weight Increase [3]: 4.55%; Appearance at Hour Zero [3]: Off white powder |
| [3-((1S, 3R)-1-biphenyl-4-ylmethyl-3-ethoxycarbonyl-1-butylcarbamoyl)propionate-(S)-3′-methyl-2′-(pentanoyl {2″-(tetrazol-5-ylate)biphenyl-4′-ylmethyl}amino)butyrate]6Ca3Na12.15H2O [Example 5] | only slight decreases in purities | 62.92 | 37.08 | 62.86 | 36.99 | 62.82 | 37.01 | 62.92 | 37.08 | 62.86 | 37.06 | 62.79 | 36.98 | 62.92 | 37.08 | 62.83 | 37.04 | 62.72 | 36.97 | Off white powder | CMAX and AUC of valsartan, AHU377 and LBQ657 relative to the comparative example [4]: clearly higher than that of the comparative sample; Weight Increase [3]: 2.12%; Appearance at Hour Zero [3]: Off white powder |
| [3-((1S, 3R)-1-biphenyl-4-ylmethyl-3-ethoxycarbonyl-1-butylcarbamoyl)propionate-(S)-3′-methyl-2′-(pentanoyl {2″-(tetrazol-5-ylate)biphenyl-4′-ylmethyl}amino)butyrate]6Ca2Na14.15H2O [Example 4] | only slight decreases in purities | 62.89 | 37.11 | 62.87 | 37.10 | 62.84 | 37.08 | 62.89 | 37.11 | 62.86 | 37.08 | 62.81 | 37.05 | 62.89 | 37.11 | 62.82 | 37.07 | – | 37.01 | Off white powder | Weight Increase [3]: 4.51%; Appearance at Hour Zero [3]: Off white powder |
| [3-((1S, 3R)-1-biphenyl-4-ylmethyl-3-ethoxycarbonyl-1-butylcarbamoyl)propionate-(S)-3′-methyl-2′-(pentanoyl{2″-(tetrazol-5-ylate)biphenyl-4′-ylmethyl}amino)butyrate]6CaNa16.15H2O [Example 1] | only slight decreases in purities | 62.89 | 37.11 | 62.84 | 37.12 | 62.83 | 37.10 | 62.89 | 37.11 | 62.85 | 37.13 | 62.81 | 37.09 | 62.89 | 37.11 | 62.87 | 37.09 | 62.84 | 37.07 | Off white powder | Equilibrium solubility pH 3.5 [1]: 0.49 mg/mL; TMAX of valsartan relative to the comparative example [4]: moved significantly earlier; CMAX and AUC of valsartan, AHU377 and LBQ657 relative to the comparative example [4]: clearly higher than that of the comparative sample; Weight Increase [3]: 6.95%; Appearance at Hour Zero [3]: Off white powder |

“Also recorded” adds a separate entry of the source. Read-outs that look alike come from different tables or passages of the source.
